Measured values reported in PubChem BioAssay AID604 (The Scripps Research Institute Molecular Screening Center, 2007).
This is a selection; strong and weak results do not stand in their true shares. The source made the active and inactive calls.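 The calls were made as follows: active = inhibition above the screen-wide mean inhibition plus 3 SD (cut at about 18% in these data); inactive = the rest.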

Protein sequences, listed by entry. Tags and fused reporters are not part of them. Lines headed by an entry give the natural chain unless they say otherwise; changes in a name come on top.
UniProt O75116: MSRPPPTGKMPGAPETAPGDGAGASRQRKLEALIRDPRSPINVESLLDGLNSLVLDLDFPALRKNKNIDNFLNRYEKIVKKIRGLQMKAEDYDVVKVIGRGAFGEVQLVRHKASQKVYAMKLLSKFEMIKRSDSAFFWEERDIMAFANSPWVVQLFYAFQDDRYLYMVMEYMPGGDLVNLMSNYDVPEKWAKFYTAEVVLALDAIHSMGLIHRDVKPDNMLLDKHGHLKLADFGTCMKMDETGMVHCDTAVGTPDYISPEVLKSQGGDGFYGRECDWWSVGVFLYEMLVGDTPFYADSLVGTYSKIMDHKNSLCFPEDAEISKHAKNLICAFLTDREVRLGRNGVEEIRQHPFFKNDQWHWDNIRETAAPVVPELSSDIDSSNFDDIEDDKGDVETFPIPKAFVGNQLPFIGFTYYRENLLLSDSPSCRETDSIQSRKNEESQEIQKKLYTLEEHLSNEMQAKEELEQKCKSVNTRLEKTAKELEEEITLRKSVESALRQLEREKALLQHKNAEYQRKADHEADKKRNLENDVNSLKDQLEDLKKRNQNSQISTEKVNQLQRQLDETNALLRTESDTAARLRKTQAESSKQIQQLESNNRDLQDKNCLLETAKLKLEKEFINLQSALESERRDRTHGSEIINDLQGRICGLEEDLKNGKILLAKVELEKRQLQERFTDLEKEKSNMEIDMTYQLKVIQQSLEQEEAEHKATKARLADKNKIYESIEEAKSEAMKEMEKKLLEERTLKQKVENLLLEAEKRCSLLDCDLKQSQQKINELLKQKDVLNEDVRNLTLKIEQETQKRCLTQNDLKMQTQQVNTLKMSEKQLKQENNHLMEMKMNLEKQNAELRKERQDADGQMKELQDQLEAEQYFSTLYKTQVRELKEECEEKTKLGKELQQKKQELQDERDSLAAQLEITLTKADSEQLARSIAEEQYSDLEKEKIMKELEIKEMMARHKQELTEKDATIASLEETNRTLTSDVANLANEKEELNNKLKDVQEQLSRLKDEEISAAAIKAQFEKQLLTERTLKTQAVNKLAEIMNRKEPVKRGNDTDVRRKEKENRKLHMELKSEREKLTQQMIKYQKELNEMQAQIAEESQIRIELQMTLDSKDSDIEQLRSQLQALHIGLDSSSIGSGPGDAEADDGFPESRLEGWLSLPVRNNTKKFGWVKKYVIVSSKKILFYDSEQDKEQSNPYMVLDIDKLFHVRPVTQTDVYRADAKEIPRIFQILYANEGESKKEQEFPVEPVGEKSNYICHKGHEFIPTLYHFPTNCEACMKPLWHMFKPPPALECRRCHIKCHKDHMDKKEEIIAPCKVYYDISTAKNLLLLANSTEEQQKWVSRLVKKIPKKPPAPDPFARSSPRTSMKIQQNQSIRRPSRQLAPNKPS

Each molecule was assayed against Rho-associated protein kinase 2 (Homo sapiens) (UniProt O75116) (assay: inhibitors of human ROCK2 kinase, primary screen, biochemical, high-throughput, luminescence (AID 604;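 also: plate controls were DMSO wells for no effect and Y-27632 control wells after no-enzyme background subtraction for full effect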)). Conditions: purified ROCK2, Kinase-Glo ATP depletion luminescence; at 6 µM; stronger effect = higher value.

Row | Compound | inhibition
1 | O=P1(Nc2nc3ccc(Cl)cc3s2)COc2ccccc2O1 (centres undefined) | inactive: -0.6%
2 | O=C(OC1CN2CCC1CC2)c1cccc(Cl)c1 (centres undefined) | inactive: -3%
3 | c1nnnn1CCn1cnnn1 | inactive: -5.2%
4 | O=P(Nc1nccs1)(c1ccccc1)c1ccccc1 | inactive: 6.5%
5 | CCc1nc2c(n1)c1c(non1O)c1c2no[n+]1[O-] | inactive: -1.1%
6 | Cc1c2non([O-])c-2c(C)[n+](=O)[n+]1[O-] | inactive: 1.3%
7 | O=C(OC1CN2CCC1CC2)C12CC3CC(CC(C3)C1)C2 (centres undefined) | inactive: -1.9%
8 | O=C(COc1ccccc1)OC1CN2CCC1CC2 (centres undefined) | inactive: -10.3%
9 | COP1(=S)c2c(C)nn(CCC#N)c2N=C(c2ccc(F)cc2)N1C (centres undefined) | inactive: -0.8%
10 | Clc1n[nH]nc1-c1nn[nH][15n]1 | inactive: -4.2%
11 | O=P1(Nc2ccccn2)COc2ccccc2OC1 | inactive: 3%
12 | Cc1ccc(OCC(=O)OC2CN3CCC2CC3)cc1 (centres undefined) | inactive: 7.8%
13 | O=P1(Nc2ccc(Br)cn2)COc2ccccc2OC1 | inactive: 2.4%
14 | O=P1(Nc2ncccn2)COc2ccccc2OC1 | inactive: 5.8%
15 | Cc1nn(-c2ccccc2)c2c1P(=O)(N1CCOCC1)N(C)C(c1ccccc1)=N2 (centres undefined) | inactive: 7.8%
16 | CCOP1(=S)c2c(C)nn(CCC#N)c2N=C(c2ccc(F)cc2)N1C (centres undefined) | inactive: 5.5%
17 | CCOP1(=S)c2c(C)nn(CCC#N)c2N=C(c2ccccc2F)N1C (centres undefined) | inactive: 1.8%
18 | O=P(Nc1nccs1)(c1ccccc1)c1nc2ccccc2s1 (centres undefined) | inactive: 2.8%
19 | Cc1cccc(OCC(=O)OC2CN3CCC2CC3)c1 (centres undefined) | inactive: 6.1%
